EC50 data for 1 compound are collected here from BindingDB's records for US9963460.

The chains behind the UniProt entries cited, without tags or fusion partners.
UniProt P41143, whole entry: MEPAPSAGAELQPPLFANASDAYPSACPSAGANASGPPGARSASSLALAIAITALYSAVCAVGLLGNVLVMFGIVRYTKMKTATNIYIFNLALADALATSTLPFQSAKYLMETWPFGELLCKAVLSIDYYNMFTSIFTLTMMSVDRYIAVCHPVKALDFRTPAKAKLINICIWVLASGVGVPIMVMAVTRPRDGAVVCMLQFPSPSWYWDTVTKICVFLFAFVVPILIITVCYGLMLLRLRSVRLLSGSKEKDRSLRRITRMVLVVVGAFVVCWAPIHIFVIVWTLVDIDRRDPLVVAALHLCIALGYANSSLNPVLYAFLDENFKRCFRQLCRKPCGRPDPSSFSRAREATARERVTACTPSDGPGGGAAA
UniProt P41145, whole entry: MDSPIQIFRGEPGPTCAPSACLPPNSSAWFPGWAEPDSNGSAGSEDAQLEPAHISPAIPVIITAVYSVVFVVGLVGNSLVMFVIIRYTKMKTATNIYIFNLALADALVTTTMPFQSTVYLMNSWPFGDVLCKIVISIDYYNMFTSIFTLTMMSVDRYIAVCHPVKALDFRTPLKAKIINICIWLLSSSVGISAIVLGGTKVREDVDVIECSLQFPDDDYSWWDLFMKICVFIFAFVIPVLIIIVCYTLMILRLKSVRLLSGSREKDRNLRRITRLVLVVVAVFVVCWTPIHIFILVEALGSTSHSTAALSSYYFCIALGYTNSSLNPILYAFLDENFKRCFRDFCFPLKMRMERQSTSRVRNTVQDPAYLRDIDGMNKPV
UniProt P35372, whole entry: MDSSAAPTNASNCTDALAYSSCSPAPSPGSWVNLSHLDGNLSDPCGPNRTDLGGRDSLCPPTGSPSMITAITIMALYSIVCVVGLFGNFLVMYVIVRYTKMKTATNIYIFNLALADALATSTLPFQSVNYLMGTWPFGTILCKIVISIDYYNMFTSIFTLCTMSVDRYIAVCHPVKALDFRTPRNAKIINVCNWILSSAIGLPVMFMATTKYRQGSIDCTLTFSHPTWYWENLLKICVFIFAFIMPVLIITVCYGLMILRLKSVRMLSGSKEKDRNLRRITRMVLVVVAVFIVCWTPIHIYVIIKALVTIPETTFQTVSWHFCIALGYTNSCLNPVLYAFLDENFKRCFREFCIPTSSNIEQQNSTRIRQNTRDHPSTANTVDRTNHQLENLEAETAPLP

Broadly, the EC50 is the midpoint of the concentration-response curve.

Holding throughout (experiment): [35S] GTPgammaS binding test
In general terms: Binding of GTPγS marks nucleotide exchange on a G protein.

Experiment [1] concerns the target Delta-type opioid receptor (Homo sapiens, UniProt P41143). As for the experimental part:
(§1) In a [3SS] GTPγS binding test, the opioid receptor agonist activity of test compounds based on a GTP-GDP exchange reaction was evaluated. In the test, a cell membrane sample (75 μg/well) was seeded in a 96-well microplate, and test compounds at various concentrations, 30 μM guanosine-5′-diphosphate (GDP: Sigma-Aldrich Co.,

In experiment [2] the target is Kappa-type opioid receptor (Homo sapiens, UniProt P41145). On the procedure: as §1
The next experiment deals with Mu-type opioid receptor (Homo sapiens, UniProt P35372). On the procedure:
as §1

Consider `CN(Cc1ccccc1)C(=O)C1=C[C@@]23CC[C@]1(O)[C@@H]1Oc4c(O)ccc5c4[C@@]12CCN(CC1CC1)[C@@H]3C5`, for which the EC50 came to 1.7 nM in experiment [1], 0.0028 nM in experiment [2] and 2.77 nM at Mu-type opioid receptor.
